Literature values as cited in patent US20100280031A1, “LIPID FORMULATION OF APOPTOSIS PROMOTER” (priority 2009, published 2010).

Sequences of proteins named here, by UniProt entry; tags and fusion partners are left off.
UniProt P10415, whole entry: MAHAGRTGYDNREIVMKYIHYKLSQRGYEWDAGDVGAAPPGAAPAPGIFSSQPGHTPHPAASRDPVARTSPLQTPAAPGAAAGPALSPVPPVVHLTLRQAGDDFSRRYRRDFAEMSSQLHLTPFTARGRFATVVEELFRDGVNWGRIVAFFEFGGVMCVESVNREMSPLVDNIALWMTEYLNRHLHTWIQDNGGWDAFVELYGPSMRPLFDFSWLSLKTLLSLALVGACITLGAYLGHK

Molecular target: Bcl-2 (Homo sapiens, UniProt P10415)
Conditions: read-out: binding affinity; cited from earlier work

## CC1(C)CCC(c2ccc(Cl)cc2)=C(CN2CCN(c3ccc(C(=O)NS(=O)(=O)c4ccc(N[C@H](CCN5CCOCC5)CSc5ccccc5)c(S(=O)(=O)C(F)(F)F)c4)cc3)CC2)C1 [ABT-263]
  Ki: < 1 nM
